{
  "sequences": {"note": "Protein sequences, listed by entry. Tags and fused reporters are not part of them.", "UniProt Q7Z2W7, whole entry": "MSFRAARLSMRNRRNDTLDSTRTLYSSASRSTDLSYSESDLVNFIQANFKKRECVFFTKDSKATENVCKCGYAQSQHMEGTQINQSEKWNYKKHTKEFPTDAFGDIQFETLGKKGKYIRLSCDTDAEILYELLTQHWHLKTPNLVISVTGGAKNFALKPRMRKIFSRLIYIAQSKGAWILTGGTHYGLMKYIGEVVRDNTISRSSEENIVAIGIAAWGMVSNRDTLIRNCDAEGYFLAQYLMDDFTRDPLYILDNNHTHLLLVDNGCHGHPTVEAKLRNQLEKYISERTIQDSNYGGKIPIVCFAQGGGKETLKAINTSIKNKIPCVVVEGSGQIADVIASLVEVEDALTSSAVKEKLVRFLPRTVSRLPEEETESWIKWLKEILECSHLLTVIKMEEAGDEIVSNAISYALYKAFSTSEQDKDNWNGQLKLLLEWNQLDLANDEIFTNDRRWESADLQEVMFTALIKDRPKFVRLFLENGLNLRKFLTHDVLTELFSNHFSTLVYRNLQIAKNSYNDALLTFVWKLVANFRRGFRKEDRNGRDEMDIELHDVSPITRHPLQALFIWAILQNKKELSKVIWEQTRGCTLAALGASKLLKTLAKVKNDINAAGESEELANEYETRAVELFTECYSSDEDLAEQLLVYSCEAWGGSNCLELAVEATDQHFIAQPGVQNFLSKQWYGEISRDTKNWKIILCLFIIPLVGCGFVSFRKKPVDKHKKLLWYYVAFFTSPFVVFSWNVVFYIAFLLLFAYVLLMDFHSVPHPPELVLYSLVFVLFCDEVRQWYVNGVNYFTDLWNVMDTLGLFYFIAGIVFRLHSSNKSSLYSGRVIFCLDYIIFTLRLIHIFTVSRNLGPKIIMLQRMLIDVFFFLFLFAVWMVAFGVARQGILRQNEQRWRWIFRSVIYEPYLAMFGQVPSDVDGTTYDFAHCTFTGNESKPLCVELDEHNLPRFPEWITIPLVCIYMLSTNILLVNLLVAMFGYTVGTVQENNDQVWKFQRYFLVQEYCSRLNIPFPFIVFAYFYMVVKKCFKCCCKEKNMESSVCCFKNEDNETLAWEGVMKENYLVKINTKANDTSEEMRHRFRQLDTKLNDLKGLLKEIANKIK"},
  "source": "paper PMC2584039",
  "about": "(Molecular Pain, 2008)",
  "key": {"[1]": {"system": "TRPV3", "settings": "cited from earlier work"}, "[2]": {"molecular_target": "TRPM8 (Homo sapiens, UniProt Q7Z2W7)", "assay": "TRPM8 activation", "settings": "concentrations up to 30 μM"}, "[3]": {"system": "thermal sensitivity", "assay": "Hot plate test", "settings": "100 and 300 mg/kg p.o., 1 hr post dose, 52 degree C"}, "[4]": {"system": "TRPV4", "settings": "cited from earlier work"}, "[5]": {"system": "spinal nerve ligation induced mechanical hypersensitivity", "settings": "one hour post dose; for percent reversal of SNL-induced mechanical hypersensitivity: vehicle 1%"}, "[6]": {"system": "TRPV1", "settings": "cited from earlier work"}, "[7]": {"system": "CFA-induced mechanical hypersensitivity", "assay": "CFA induced mechanical hypersensitivity, Randall-Selitto test", "settings": "for percent reversal of CFA-induced mechanical hypersensitivity: vehicle 5%"}, "[8]": {"system": "48 different enzymes, receptors, and transporters", "assay": "Selectivity panel, radioligand binding or enzymatic assays (MDS Pharma Service)", "settings": "10 μM"}, "[9]": {"system": "formalin response", "settings": "intraperitoneal (IP) administration; cited from earlier work"}, "[10]": {"assay": "Plasma concentration by LC-MS/MS after behavioral testing"}, "[11]": {"system": "locomotor coordination", "assay": "Rotarod test of locomotor coordination", "settings": "100 and 300 mg/kg p.o., 1 hr post dose"}, "[12]": {"settings": "after oral administration in rats; ref US patent application 2007/0219222 A1; cited from earlier work"}},
  "note": "Where “and” joins values, the source holds several entries; their conditions need not be identical. Identical values can stand only once. Like-named read-outs stand apart in the source and are kept apart here.",
  "data": [
    {"compound": "CC(C)c1ccc(NC(=O)Cn2cnc3c2c(=O)n(C)c(=O)n3C)cc1", "values": [
      {"measurement": "block of TRPV3 activation by 2-APB", "setting": "[1]", "value": "does not block"},
      {"measurement": "block of TRPM8 activation", "setting": "[2]", "value": "did not block"},
      {"measurement": "thermal latencies on the hot plate test vs vehicle", "setting": "[3]", "value": "no significant differences"},
      {"measurement": "block of TRPV4 activation by 4α-PDD", "setting": "[4]", "value": "does not block"},
      {"measurement": "percent reversal of SNL-induced mechanical hypersensitivity", "setting": "[5]; 100 mg/kg p.o.", "value": 24, "unit": "%"},
      {"measurement": "percent reversal of SNL-induced mechanical hypersensitivity", "setting": "[5]; 300 mg/kg p.o.", "value": 41, "unit": "%"},
      {"measurement": "effect on SNL mechanical hypersensitivity vs vehicle", "setting": "[5]; HC-030031 300 mg/kg, pregabalin 20 mg/kg, p.o.", "value": "significant attenuation"},
      {"measurement": "block of TRPV1 activation by capsaicin", "setting": "[6]", "value": "does not block"},
      {"measurement": "percent reversal of CFA-induced mechanical hypersensitivity", "setting": "[7]; 100 mg/kg p.o., 1 hr post dosing", "value": 28, "unit": "%"},
      {"measurement": "percent reversal of CFA-induced mechanical hypersensitivity", "setting": "[7]; 300 mg/kg p.o., 1 hr post dosing", "value": 35, "unit": "%"},
      {"measurement": "effect on mechanical thresholds for the uninjected paw", "setting": "[7]; 100 and 300 mg/kg p.o.", "value": "neither dose of HC-030031 had an impact"},
      {"measurement": "effect on mechanical hypersensitivity of the injected paw vs vehicle", "setting": "[7]; HC-030031 100 and 300 mg/kg, naproxen 20 mg/kg, p.o., 1 hr post dosing", "value": "significantly attenuated"},
      {"measurement": "effect in target screen (41 receptors, ion channels, transporters; 7 enzymes)", "setting": "[8]", "value": "< 40", "unit": "%"},
      {"measurement": "flinching in both phases of the formalin response", "setting": "[9]", "value": "significantly reduced"},
      {"measurement": "average plasma exposure (± SEM)", "setting": "[10]; AITC study, 100 mg/kg p.o., 100 mg/kg", "value": "5.10 (± 0.67) μM and 5.1 μM"},
      {"measurement": "average plasma exposure (± SEM)", "setting": "[10]; AITC study, 300 mg/kg p.o., 300 mg/kg", "value": "9.74 (± 0.37) μM and 9.7 μM"},
      {"measurement": "average plasma exposure (± SEM)", "setting": "[10]; CFA study, 100 mg/kg p.o., immediately after testing", "value": "8.23 (± 0.55) μM"},
      {"measurement": "average plasma exposure (± SEM)", "setting": "[10]; CFA study, 300 mg/kg p.o., immediately after testing", "value": "16.33 (± 1.86) μM"},
      {"measurement": "average plasma exposure (± SEM)", "setting": "[10]; SNL study, 100 mg/kg p.o., immediately after testing", "value": "6.09 (± 1.25) μM"},
      {"measurement": "average plasma exposure (± SEM)", "setting": "[10]; SNL study, 300 mg/kg p.o., immediately after testing", "value": "7.55 (± 0.91) μM"},
      {"measurement": "average plasma exposure (± SEM)", "setting": "[10]; hot plate test, 100 mg/kg p.o.", "value": "4.99 (± 0.69) μM"},
      {"measurement": "average plasma exposure (± SEM)", "setting": "[10]; hot plate test, 300 mg/kg p.o.", "value": "7.21 (± 0.58) μM"},
      {"measurement": "average plasma exposure (± SEM)", "setting": "[10]; rotarod experiment, 100 mg/kg p.o.", "value": "4.31 (± 0.36) μM"},
      {"measurement": "average plasma exposure (± SEM)", "setting": "[10]; rotarod experiment, 300 mg/kg p.o.", "value": "10.93 (± 0.44) μM"},
      {"measurement": "latency to fall off the rotarod vs vehicle", "setting": "[11]", "value": "no significant differences"},
      {"measurement": "Tmax", "setting": "[12]", "value": 45, "unit": "min"}
    ]}
  ]
}
